According to patent US10265289B2, “Method and medicines for treating melanoma” (SICHUAN JIUZHANG BIOLOGICAL SCIENCE AND TECHNOLOGY CO., LTD., priority 2015, dated 2019):

Columns and labels:
mouse melanoma B16 [1] = assay: Example 7: chlorogenic acid-5-flurouracil combination against mouse melanoma B16; conditions: 5-flurouracil 500 mg/kg × 4, i.p., BALB/c mice, end of study
mouse melanoma B16 [2] = assay: Example 6: chlorogenic acid-adriamycin or chlorogenic acid-cisplatin combination against mouse melanoma B16; assay type: in vivo; conditions: adriamycin 3 mg/kg × 6, i.p.
From the text: Single adriamycin and its combined drug were both administrated every other day, with total six successive administrations. […] Single cisplatin and its combined drug were both administrated every three days, with total three administrations. […] Each group contains 15 animals.

mouse melanoma B16 [3] = assay: Example 4: tumor inhibitory rate of chlorogenic acid against mouse melanoma B16; conditions: cyclophosphamide 60 mg/kg × 1, i.p., C57BL/6 mice, before dosing
From the text: (§1) After inoculation, animals were divided into groups next day, weighed, and administration of drugs started.
Each group includes 15 animals.

mouse melanoma B16 [4] = assay: Example 5: chlorogenic acid-cyclophosphamide combination against mouse melanoma B16; conditions: cyclophosphamide 60 mg/kg × 1, i.p., before dosing
From the text: as §1
Each group contains 15 animals.

In the case of O=c1[nH]cc(F)c(=O)[nH]1 [5-flurouracil, 5-fluorouracil], the “Body weight (g) x ± SD End” value (mouse melanoma B16 [1]) is reported as 18.30 ± 1.19 g.

For COc1cccc2c1C(=O)c1c(O)c3c(c(O)c1C2=O)C[C@@](O)(C(=O)CO)C[C@@H]3O[C@H]1C[C@H](N)[C@H](O)[C@H](C)O1 [Adriamycin, adriamycin], the “Body weight (g) x ± SD Initial” value (mouse melanoma B16 [2]; before dosing) was 19.65 ± 0.97 g and the “Body weight (g) x ± SD End” value (mouse melanoma B16 [2]; end of study) was 21.46 ± 3.53 g.

For O=P1(N(CCCl)CCCl)NCCCO1 (centres unmarked) [cyclophosphamide], the “Body weight (g) x ± SD Initial” value (mouse melanoma B16 [3]) was 19.93 ± 0.53 g and the “Body weight (g) x ± SD Initial” value (mouse melanoma B16 [4]) was 19.59 ± 0.81 g.
